Assay results as given in patent publication US5763212A, “Inhibiting degradation of a degron-bearing protein” (California Institute of Technology, priority 1995, dated 1998).

Key:
[1] = system: Ub-Arg-DHFR^ts-ha-Cdc28 (mouse DHFR Pro66Leu ts allele fused to S. cerevisiae Cdc28); details: pulse-chase, MTX in medium
[2] = system: S. cerevisiae cells expressing Ub-Arg-DHFR^ts-ha-Cdc28; details: MTX at a sufficiently high concentration in the medium
[3] = system: Arg-e^K-βgal (E. coli β-galactosidase-based N-end rule substrate); details: addition of MTX, parallel assays in reticulocyte extract

## CN(Cc1cnc2nc(N)nc(N)c2n1)c1ccc(C(=O)N[C@@H](CCC(=O)O)C(=O)O)cc1 [methotrexate]
[1]
  effect on degradation of Ub-Arg-DHFR^ts-ha-Cdc28 at 37° C.: inhibition of degradation
[2]
  viability of cells at 37° C.: remained viable
[3]
  effect on kinetics of Arg-e^K-βgal degradation: did not alter the kinetics
